Reference: patent US7041819B2, “Halogenated calixpyrroles and uses thereof” (Board of Regents, The University of Texas System, priority 1996, dated 2006)

Tests used:
[1] = 1H NMR titration in CD2Cl2; conditions: Table 5
[2] = 1H NMR titration in CD2Cl2; assay type: binding; conditions: Table 5, 33 from β-CH resonance
[3] = 1H NMR titration in CD2Cl2; conditions: for Stability constant, F: Table 5, 33 from β-CH resonance

For “Mono-β-ferroceneamidocalix[4]pyrrole [Compound 34]”, the “Stability constant, Cl” value [1] was 444 ± 22 M⁻¹, the “Stability constant, H2PO4” value [2] was 40 ± 9 M⁻¹ and the “Stability constant, F” value [3] was 1496 ± 370 M⁻¹.

In the case of “Mono-meso-ferroceneamidocalix[4]pyrrole [Compound 33]”, the “Stability constant, Cl” value [1] is reported as 202 ± 15 M⁻¹, the “Stability constant, H2PO4” value [2] is reported as 40 ± 6 M^−1 (β-CH) and the “Stability constant, F” value [3] is reported as 79 ± 7 M^−1 (β-CH). The “Stability constant, F (NH)” value ([3]; Table 5, from NH resonance) was 206 ± 51 M⁻¹ (NH).
